Data as given in US20260256822A1, “ENTRY-MODULATING AGENTS AND USES THEREFOR” (priority 2022, published 2026).

System: P. falciparum strain Pf3D7^0087/N9
Settings: in vivo

## Zinc Pyrithione
  parasitemia in humanized NSG mouse model: reduces parasitemia
  reduction of parasitemia of the mice: 51%
